From patent US11851445B2, “Compounds and uses thereof” (Foghorn Therapeutics Inc., priority 2020, dated 2023)

Assay: Interconversion between Enantiomer 1 and Enantiomer 2 in cell medium, chiral LC/MS-MS
Conditions: Enantiomer 1 Dosing, 0.2 μM, 37° C., 0.5 h, Time 0 h
Protocol: For the assessment of interconversion between Enantiomer 1 and Enantiomer 2 in cell medium, the following test was performed. Enantiomer 1 and Enantiomer 2 (each was 40 μM in DMSO) was spiked into cell medium (DMEM+Glutamax+10% FBS) at a final concentration of 0.2 μM and incubated at 37° C. and 5% CO2 in duplicate. At designated time point, aliquot (50 μL) was taken and processed by the addition of 150 μL of acetonitrile containing 0.1% formic acid and internal standard for LC/MS-MS analysis. Peak areas of both Enantiomer 1 and Enantiomer 2 were determined for each sample using a chiral specific analytical method.

COc1cc(-c2cn(C)c(=O)c3cnc(N4CCC4)cc23)cc(OC)c1CN1CCC(CN2CCC3(CC2)CN(c2ccc4c(c2)C(=O)N([C@@H]2CCC(=O)NC2=O)C4)C3)CC1 (single isomer, unassigned)
% Enantiomer 2: 0.0%
